Assay: Measurement of logP values by HPLC on reversed phase columns (EEC directive 79/831 Annex V.A8)
Type: physicochemical
Conditions: for Log P: pH 2.7, 0.1% formic acid in water / acetonitrile, single value

SMILES	Log P	further results
CCCCOC(C)C(=O)Nc1cccc(CON=C(c2ccccc2)c2nnsc2C)n1 (centres unmarked) [Example 97]	4.78	–
Cc1snnc1C(=NOCc1cccc(NC(=O)CSCCC(C)C)n1)c1ccccc1 [Example 68]	4.78	–
Cc1snnc1C(=NOCc1cccc(NC(=O)CSc2ccccc2)n1)c1ccccc1 (mixture of isomers) [Example 6]	–	Log P [I1] main isomer (pH 2.7, 0.1% formic acid, main isomer): 4.21
Cc1snnc1C(=NOCc1cccc(NC(=O)COCc2ccccc2)n1)c1ccccc1 (mixture of isomers) [Example 29]	–	Log P [I2] minor isomer (pH 2.7, 0.1% formic acid, minor isomer): 4.21
Cc1snnc1C(=NOCc1cccc(NC(=O)COc2ccc(I)cc2)n1)c1ccccc1 [Example 46]	4.78	–
Cc1snnc1C(=NOCc1cccc(NC(=O)COCCC(C)C)n1)c1ccccc1 [Example 4]	4.78	–
Cc1snnc1C(=NOCc1csc(NC(=O)COc2ccc(Cl)cc2)n1)c1ccccc1 (mixture of isomers) [Example 33]	–	Log P (two values printed, isomers not assigned) (pH 2.7, 0.1% formic acid, two values without isomer tag): 4.21
Cc1snnc1C(=NOCc1csc(NC(=O)C(C)OCC(C)C)n1)c1ccccc1 (centres unmarked) [Example 85]	4.39	–
